Laboratory results taken from US4900730A, “Preparation which promotes the absorption of peptides” (priority 1981, dated 1990).
Each block holds one compound with its values, some of them ahead of it.

Test: Rectal circulation: Cephalothin disappeared by absorption (Examples 10-14, 16-18)
Details: for Cephalothin disappeared by absorption, Osmotic pressure (%) X 4 / Cephalothin disappeared by absorption, Osmotic pressure (%) X 1: promoter 0.1% W/V, 0.1% W/V Cephalothin.Na
Method: The experiments were conducted similarly as in Example 1. […] Each sample was diluted and the quantity of Cephalothin disappeared was determined by UV-spectrophotometer of high-speed liquid chromatography.

[1] = Table 4, four-fold tonic, after one hour
[2] = Table 4, isotonic, after one hour

Compound: NC(C(=O)O)c1ccccc1 (racemic) [DL-phenylglycine]
Cephalothin disappeared by absorption, Osmotic pressure X 1 (rat, in vivo): 11.5 percents | Cephalothin disappeared by absorption, Osmotic pressure X 2 (rat, in vivo): 19.8 percents

Compound: CCOC(=O)CC(C)=O [Ethylacetoacetate]
Cephalothin disappeared by absorption, Osmotic pressure X 4 (Table 10, diketo-compounds, Example 10 repeated, four-fold tonic): 26.7 percents | Cephalothin disappeared by absorption, Osmotic pressure X 1 (Table 10, diketo-compounds, Example 10 repeated, isotonic): 14.6 percents | Cephalothin disappeared by absorption, Osmotic pressure X 2 (Table 10, diketo-compounds, Example 10 repeated, two-fold tonic): 20.2 percents

Second part, the compound after the results:

Cephalothin disappeared by absorption, Osmotic pressure (%) X 4 [1]: 13.0% | Cephalothin disappeared by absorption, Osmotic pressure (%) X 1 [2]: 4.5%
Compound: O=C(O)CC(=O)O [Malonic acid, malonic acid]

Cephalothin disappeared by absorption, Osmotic pressure (%) X 4 [1]: 10.4% | Cephalothin disappeared by absorption, Osmotic pressure (%) X 1 [2]: 4.4%
Compound: O=C(O)CN(CC(=O)O)CC(=O)O [Nitrilotriacetic acid, nitrilotriacetic acid]

Cephalothin disappeared by absorption, Osmotic pressure (%) X 1 (Table 5, isotonic, one hour): 7.1%
Compound: O=C(O)CCC(=O)C(=O)O [α-ketoglutaric acid]
